Assay results reported in patent publication US20060051295A1 (published 2006).

The chains behind the UniProt entries cited, without tags or fusion partners.
UniProt Q92731, whole entry: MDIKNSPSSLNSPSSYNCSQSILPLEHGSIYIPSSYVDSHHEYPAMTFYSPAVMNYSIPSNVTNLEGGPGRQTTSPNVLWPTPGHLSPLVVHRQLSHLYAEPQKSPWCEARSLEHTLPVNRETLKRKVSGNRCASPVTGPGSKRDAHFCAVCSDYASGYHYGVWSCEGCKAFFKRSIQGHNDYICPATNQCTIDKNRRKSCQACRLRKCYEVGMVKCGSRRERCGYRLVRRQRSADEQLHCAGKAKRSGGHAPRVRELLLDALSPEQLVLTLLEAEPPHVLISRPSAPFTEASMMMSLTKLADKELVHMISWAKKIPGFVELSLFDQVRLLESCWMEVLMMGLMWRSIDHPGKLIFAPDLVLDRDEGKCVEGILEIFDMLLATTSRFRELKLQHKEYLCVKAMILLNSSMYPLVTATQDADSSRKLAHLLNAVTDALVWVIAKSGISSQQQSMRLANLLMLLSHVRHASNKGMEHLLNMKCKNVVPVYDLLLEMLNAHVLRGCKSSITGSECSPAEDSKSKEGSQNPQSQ

Tests used:
ER beta = ER beta (Homo sapiens, UniProt Q92731); assay: Yeast two-hybrid ER beta, no partner
ER beta / RelA = ER beta / RelA (Homo sapiens, UniProt Q92731); assay: Yeast two-hybrid ER beta / RelA
ER beta / cRel = ER beta / cRel (Homo sapiens, UniProt Q92731); assay: Yeast two-hybrid ER beta / cRel

C[C@]12CC[C@@H]3c4ccc(O)cc4CC[C@H]3[C@@H]1CC[C@@H]2O [Org E2]
β-galactosidase activity (ER beta; E2 0.01 nM): 164
β-galactosidase activity (ER beta; E2 0.1 nM): 188
β-galactosidase activity (ER beta; E2 1 nM): 178
β-galactosidase activity (ER beta; E2 10 nM): 186
β-galactosidase activity (ER beta; E2 100 nM): 188
β-galactosidase activity (ER beta / RelA; E2 0.1 nM): 144
β-galactosidase activity (ER beta / RelA; E2 1 nM): 158
β-galactosidase activity (ER beta / RelA; E2 10 nM): 182
β-galactosidase activity (ER beta / RelA; E2 100 nM): 156
β-galactosidase activity (ER beta / cRel; E2 0.01 nM): 404
β-galactosidase activity (ER beta / cRel; E2 0.1 nM): 1818
β-galactosidase activity (ER beta / cRel; E2 1 nM): 2140
β-galactosidase activity (ER beta / cRel; E2 10 nM): 2656
β-galactosidase activity (ER beta / cRel; E2 100 nM): 3216
